Data taken from patent US12064407B2 (priority 2017, dated 2024).

System: ERVK CTXLP
Format: cell-based, human

Molecule	CTXLP expression in SVGA cells	CTXLP protein levels in the nucleus of SVGA cells
TNFα	upregulated	strongly elevated
LIGHT: lymphotoxin-like inducible member of the TNF superfamily protein, pro-inflammatory cytokine (protein, UniProt O43557 83-240, looked up) Tumor necrosis factor ligand …: LIQERRSHEVNPAAHLTGANSSLTGSGGPLLWETQLGLAFLRGLSYHDGALVVTKAGYYYIYSKVQLGGVGCPLGLASTITHGLYKRTPRYPEELELLVSQQSPCGRATSSSRVWWDSSFLGGVVHLEAGEKVVVRVLDERLVRLRDGTRSYFGAFMV	upregulated	–
